Assay results as given in patent US20260272960A1, “[…] COMPOUNDS, PREPARATION METHOD AND USE THEREOF” (HC SYNTHETIC PHARMACEUTICAL CO., LTD., priority 2022, published 2026).

Test system: histamine-contracted isolated ileal smooth muscle of guinea pigs
Assay: Antispasmodic effect on histamine-contracted isolated ileal smooth muscle of guinea pigs
Design: species or system guinea pig
Conditions: x ± s, n = 8
Procedure: The guinea pig was knocked unconscious with a wooden stick, and the abdomen was immediately dissected to separate the ileum about 15 cm in length. The contents of the intestinal segment were flushed with Tyrode's solution and placed in Tyrode's solution at a constant temperature of 37° C. for later use, and oxygen was supplied simultaneously. The experimental intestinal tract (1 cm in length) was cut and placed into 20 ml of Tyrode's solution at a constant temperature of 37° C. with a continuous oxygen supply. One end of the intestine was fixed on the ventilation hook and the other end was connected to the muscle tone transducer and led to the computer interface. The muscle tone value of the ileal smooth muscle was recorded with a BL system. The experiment was carried out after the intestinal segment contraction became stable. […] The operation was repeated 8 times. The antispasmodic percentage was calculated using the following equation.

CN1CCC(=C2c3ccccc3CC(=O)c3sccc32)CC1 [Ketotifen, ketotifen]
Smooth muscle tone (g) After administration (3 minutes after adding 0.05 mL of compound to histamine-contracted ileum): 1.50 ± 0.48 g
Antispasmodic percentage (%) (against histamine contraction, 3 minutes after adding the compound): 56.01 ± 12.18%
